Data reported in ChEMBL document CHEMBL1136006, “New PET imaging agent for the serotonin transporter: [(18)F]ACF (2-[(2-amino-4-chloro-5-fluorophenyl)thio]-N,N-dimethyl-benzenmethanamine)” (J Med Chem, 2002).

Amino acid sequences for entries named in this document (tags omitted).
UniProt P31652, whole entry: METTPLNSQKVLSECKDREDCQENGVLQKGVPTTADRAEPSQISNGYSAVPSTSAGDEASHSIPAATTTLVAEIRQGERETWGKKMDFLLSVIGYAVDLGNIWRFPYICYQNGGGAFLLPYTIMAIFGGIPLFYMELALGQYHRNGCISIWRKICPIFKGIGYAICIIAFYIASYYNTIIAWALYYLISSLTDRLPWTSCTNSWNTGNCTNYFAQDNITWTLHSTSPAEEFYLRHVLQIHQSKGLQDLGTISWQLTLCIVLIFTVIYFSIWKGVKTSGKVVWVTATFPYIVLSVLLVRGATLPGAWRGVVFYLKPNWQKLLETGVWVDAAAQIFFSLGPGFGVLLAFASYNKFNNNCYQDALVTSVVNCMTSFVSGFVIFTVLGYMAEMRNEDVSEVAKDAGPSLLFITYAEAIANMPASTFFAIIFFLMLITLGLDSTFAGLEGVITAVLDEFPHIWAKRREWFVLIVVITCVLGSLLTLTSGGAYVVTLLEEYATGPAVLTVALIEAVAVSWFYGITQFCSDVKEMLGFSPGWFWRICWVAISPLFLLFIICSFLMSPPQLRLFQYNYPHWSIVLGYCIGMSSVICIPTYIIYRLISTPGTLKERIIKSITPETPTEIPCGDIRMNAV

Target: Sodium-dependent serotonin transporter (Rattus norvegicus, UniProt P31652)
Experiment: Inhibition of 5-HT reuptake (SERT) in rat brain synaptosomes.
Type: subcellular

Ki: 0.4 nM
SMILES: [11CH3]Sc1ccc([C@@H]2CN3CCC[C@@H]3c3ccccc32)cc1
